Reference: PubChem BioAssay AID1863 (Southern Research Specialized Biocontainment Screening …, 2009)
Several values for one entry are separate records, joined by “and”; a condition that tells them apart may be missing. Equal values may be shown once. This is a selection; strong and weak results do not stand in their true shares. Results with a measured potency or affinity are listed apart. Activity calls are given as the source filed them.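 The calls were made as follows: active = inhibition over 29.93%, a cutoff 3 SD above the screen mean, later confirmed by dose response; inconclusive = inhibition over 29.93% but no dose response follow-up; inactive = inhibition at most 29.93% or unconfirmed.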

assay: inhibitors of PhoP regulon expression, primary screen, Salmonella Typhimurium, GFP reporter (AID 1863);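 also: 0% = low Mg2+ inducing control and 100% = high Mg2+ repressing control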; conditions: S. Typhimurium PhoP-regulated promoter GFP reporter, 4 h; at 50 µM; active compounds read high

SMILES	inhibition
COc1ccc(C2=NCC(CBr)S2)cc1 (stereo not given)	inactive: -6.82%
CC(=O)N1C2C3N(C(C)=O)C1C1N(C(C)=O)C(C(N1C(C)=O)N3C(C)=O)N2C(C)=O	inactive: 27.4%
O=[N+]([O-])c1cccc2n[nH]nc12	inactive: -2.23%
Cc1ccc(NP(=O)(Oc2ccccc2)Oc2ccccc2)nc1	inactive: -8.3%
O=[N+]([O-])c1cc([N+](=O)[O-])c(CCNc2ccccc2)c([N+](=O)[O-])c1	inactive: 6.47%
CCc1nc2c(n1)c1c(non1O)c1c2no[n+]1[O-]	inactive: 1.11%
Nc1ccc([As](=O)(O)c2ccc(N)cc2)cc1	inactive: 4.15%
C[N+]1=C2C=CC=CC=C2SC12C([N+](=O)[O-])=CC([N+](=O)[O-])=C[C-]2[N+](=O)[O-] (stereo not given)	inactive: 21.4%
CCN(/C(=N/P(=O)(N1CCOCC1)N1CCOCC1)N1CCOCC1)c1ccc(OC)cc1	inactive: 4.03%
CC(C)=N/N=C(\N)N[N+](=O)[O-]	inactive: 2.14%
CN(C)C(=O)OCCc1n(C)cc[n+]1C	inactive: -22.3%
CC1CCN(C(=O)Oc2c(Cl)cc(Cl)c3cccnc23)CC1	inactive: -1.76%
O=C(Nc1cc([As](=O)(O)O)ccc1O)c1ccccc1	inactive: -3.64%
CC(C)(C)C(=O)NC(Sc1ccncn1)C(Cl)(Cl)Cl (stereo not given)	inactive: -5.35%
O=[N+]([O-])c1ncn(CCn2ncnc2[N+](=O)[O-])n1	inactive: 3.28%
O=[N+]([O-])c1cccc(NC2=NCC(CBr)S2)c1 (stereo not given)	inactive: -8.77%
O=C(O)CNc1ccc([As](=O)(O)O)cc1	inactive: -5.41%
CC(=O)Nc1ccc([As](=O)(O)O)cc1	inactive: -3.23%
O=P(Nc1nc2ccc(Cl)cc2s1)(c1ccccc1)c1ccccc1	inactive: -11%
Cc1cc(SC(NC(=O)c2ccc(F)cc2)C(Cl)(Cl)Cl)ncn1 (stereo not given)	inactive: 14.9%
CCOP(=O)(Nc1ccccc1)OCC	inactive: -9.51% and inactive: -3.2%
CN(C(=O)Cc1ccc(Cl)c(Cl)c1)[C@H]1CCCC[C@@H]1N1CCCC1	inactive: -6.85%
Cc1ccc(NP(=O)(Oc2ccccc2F)Oc2ccccc2F)nc1	inactive: -8.93%
O=[N+]([O-])c1cc([N+](=O)[O-])c(CCN2CCOCC2)c([N+](=O)[O-])c1	inactive: 4.49%
CCN(N=Nc1nonc1N)c1nonc1N	inactive: 6.31%

SMILES	inhibition
Nc1cccc2ccc([As](=O)(O)O)cc12	inactive: -8.41%
NC(=O)c1cc([N+](=O)[O-])cc([N+](=O)[O-])c1N	inactive: 3.45%
CN(C(=O)Cc1ccc(Cl)c(Cl)c1)[C@H]1CCCC[C@H]1N1CCCC1	inactive: -3.62%
Cc1ccc(N/C(=N/P(=O)(N2CCOCC2)N2CCOCC2)N2CCOCC2)cc1	inactive: -0.36%
Cc1ccc(OP(=O)(Nc2nccs2)Oc2ccc(C)cc2)cc1	inactive: -14.5%
CN1CCCC(OC(=O)C(c2ccccc2)c2ccccc2)C1 (stereo not given)	inactive: -3.66%
Clc1ccc(Cl)c(NC2=NCC(CBr)S2)c1 (stereo not given)	inactive: -8.5%
CC(C)CC(=O)NC(Sc1ccc(Cl)cc1)C(Cl)(Cl)Cl (stereo not given)	inactive: 1.64%
Oc1ccccc1CNc1ccccn1	inactive: -2.17%
O=C(NC(Sc1ccncn1)C(Cl)(Cl)Cl)c1ccccc1 (stereo not given)	inactive: 17%
Cc1c2non([O-])c-2c(C)[n+](=O)[n+]1[O-]	inactive: -31.9%
O=P1(Nc2nc3ccc(Cl)cc3s2)COc2ccccc2O1 (stereo not given)	inactive: 26.5%
CCOc1ccc(C2=NCC(CBr)S2)cc1 (stereo not given)	inactive: 2.31%
CC(C)(C)C(=O)NC(Sc1ccccc1)C(Cl)(Cl)Cl (stereo not given)	inactive: -7.55%
C[C@H]1OP(=O)(Oc2ccccc2)C[C@@H]2O[C@@H]21 (stereo not given in full)	inactive: -4.41%
C[C@@H]1C=CCP(=O)(Oc2ccccc2)O1 (stereo not given in full)	inactive: -0.625%
CC(=O)Nc1ccc([As](=O)(O)O)c(O)c1	inactive: -10.3%
CC(=O)Nc1ccc(Oc2c([N+](=O)[O-])cc([N+](=O)[O-])cc2[N+](=O)[O-])cc1	inactive: 6.93%
O=C(NC1CCS(=O)(=O)C1)NP(=S)(Oc1ccccc1)Oc1ccccc1 (stereo not given)	inactive: 5.46%
CCNC(=S)/N=C(\N)N[N+](=O)[O-]	inactive: -9.44%
c1ccc(-c2nn[nH]n2)c(-c2nn[nH]n2)c1	inactive: -4.37%
CCOC(=O)NC(Sc1ccccc1)C(Cl)(Cl)Cl (stereo not given)	inactive: 1.09%
Cc1ccc(NP(=O)(Oc2cccc(C)c2)Oc2cccc(C)c2)nc1	inactive: -5.01%
COC(=O)c1cc2c(s1)N=C(c1ccccc1)N(C)P2(=O)N1CCOCC1 (stereo not given)	inactive: -10.2%
Cc1ccc(OP(=O)(Nc2ccccn2)Oc2ccc(C)cc2)cc1	inactive: -5.27%

SMILES	inhibition
CC(=O)NC(SC(=S)N(CC(C)C)CC(C)C)C(Cl)(Cl)Cl (stereo not given)	inactive: 10.7%
O=C(OC1CN2CCC1CC2)c1ccccc1 (stereo not given)	inactive: 0.43%
CCC(=O)N1C2C3N(C(=O)CC)C1C1N(C(=O)CC)C(C(N1C(=O)CC)N3C(=O)CC)N2C(=O)CC	inactive: 2.92%
Cc1ccccc1OP(=O)(Nc1ccccn1)Oc1ccccc1C	inactive: -13.1%
O=c1c2cc([N+](=O)[O-])ccc2[nH]c2c([N+](=O)[O-])cc([N+](=O)[O-])cc12	inactive: -5.83%
CN(C)C(=O)Oc1noc2ccccc12	inactive: -0.24%
CN(C)C1(CNC(=O)c2ccc(Cl)c(S(N)(=O)=O)c2)CCCCC1	inactive: -5.61%
O=P(Nc1ccccn1)(c1ccc(Br)cc1)c1ccc(Br)cc1	inactive: 1.43%
O=P(Nc1nc2ccccc2s1)(c1ccccc1)c1ccccc1	inactive: -5.31%
C[C@H]1OP(=O)(Oc2ccccc2)[C@H](O)[C@H](O)[C@H]1N=[N+]=[N-] (stereo not given in full)	inactive: -1.71%
O=[N+]([O-])c1ncn(CCn2cnc([N+](=O)[O-])n2)n1	inactive: -16.7%
CC(=O)NC(SC(=S)N(C)C)C(Cl)(Cl)Cl (stereo not given)	inactive: -8.05%
O=[N+]([O-])c1ccc(O)c(/C=N/Nc2ccc([N+](=O)[O-])cc2[N+](=O)[O-])c1	inactive: -0.4%
O=[As](O)(c1ccccc1)c1ccc(O)cc1	inactive: -3.62%
C(Cc1nn[nH]n1)Cc1nn[nH]n1	inactive: -18.2%
Nc1ccc([As](=O)(O)c2ccc([N+](=O)[O-])cc2)cc1	inactive: -4.68%
O=C(OC1CN2CCC1CC2)c1cccc(Cl)c1 (stereo not given)	inactive: 4.22%
O=P(Nc1nccs1)(c1ccccc1)c1ccccc1	inactive: 1.16%
CC(C)C(=O)NC(Sc1ccccc1)C(Cl)(Cl)Cl (stereo not given)	inactive: -2.33%
c1nnnn1CCn1cnnn1	inactive: 3.38%
CCOP(=O)(Nc1ccc(C)cn1)OCC	inactive: -4.07%
CN(CCCl)Cc1cc(Cl)c(NC2=NCCN2)c(Cl)c1	inactive: -2.63%
O=P1(Nc2ccccn2)COc2ccccc2OC1	inactive: 7.15%
CCOP(=O)(NC(=NC(C)c1ccccc1)NC(C)c1ccccc1)OCC (stereo not given)	inactive: 6.54%
Clc1n[nH]nc1-c1nn[nH][15n]1	inactive: -6.28%

SMILES	inhibition
CC(C)(C)C(=O)NC(Sc1ncccn1)C(Cl)(Cl)Cl (stereo not given)	inactive: 4.83%
COc1ccccc1CNC(=O)COC(=O)C(O)(c1ccccc1)c1ccccc1	inactive: -6.29%
O=[As](O)(c1ccccc1Br)c1ccccc1Br	inactive: -8.25%
CN(C(=O)Cc1ccc(Cl)c(Cl)c1)[C@@H]1CCCC[C@H]1N1CCCC1	inactive: -5.86% and inactive: -5.24%
CC(C)/C=N\N=C(\N)N[N+](=O)[O-]	inactive: -3.56%
Cc1nn(-c2ccccc2)c2c1P(=O)(N1CCOCC1)N(C)C(c1ccccc1)=N2 (stereo not given)	inactive: 1.52%
CC1CCC(C(C)C)C(OP(=O)(Nc2ccccn2)c2ccccc2)C1 (stereo not given)	inactive: 1.22%
O=C(/C=C/c1ccccc1)OC1CN2CCC1CC2 (stereo not given)	inactive: 8.97%
CN(C)C1(CNC(=O)c2ccc(S(C)(=O)=O)cc2)CCCCC1	inactive: -0.69%
O=P1(Nc2ncccn2)COc2ccccc2OC1	inactive: 1.1%
O=[As](O)(c1cccs1)c1cccs1	inactive: -2.96%
Cc1ccc(OCC(=O)OC2CN3CCC2CC3)cc1 (stereo not given)	inactive: -7.78%
O=P1(Nc2ccc(Br)cn2)COc2ccccc2OC1	inactive: -9.83%
Nc1cccc([As](=O)(O)c2ccccc2)c1	inactive: -0.26%
CS(=O)(=O)c1cc([N+](=O)[O-])c2no[n+]([O-])c2c1	inactive: -23%
CCOP1(=S)c2c(C)nn(CCC#N)c2N=C(c2ccccc2F)N1C (stereo not given)	inactive: 8.68%
O=P(Nc1nccs1)(Oc1ccccc1)Oc1ccccc1	inactive: -4.92%
O=P(Nc1nccs1)(c1ccccc1)c1nc2ccccc2s1 (stereo not given)	inactive: 4.12%
O=C(O)COc1ccc([As](=O)(O)O)cc1[N+](=O)[O-]	inactive: 5.21%
Nc1ccccc1[As](=O)(O)c1ccccc1	inactive: -0.18%
NC(=O)Nc1ccc([As](=O)(O)O)cc1	inactive: -3.92%
O=[N+]([O-])c1ccc2c(c1)nnn2O	inactive: 7.49%
CN(C(=O)Cc1ccc(Cl)c(Cl)c1)[C@H]1CC[C@@]2(CCCO2)C[C@@H]1N1CCCC1	inactive: -7.95%
N#CCCN(C(=O)COC(=O)C(O)(c1ccccc1)c1ccccc1)c1ccc(F)cc1	inactive: -1.21%
CCOP1(=S)c2c(C)nn(CCC#N)c2N=C(c2ccc(F)cc2)N1C (stereo not given)	inactive: 10%
